A word on the Kd: it is a measure of binding affinity in units of concentration. Low readings indicate higher affinity, high ones lower affinity.

For this assay, the target named is T1, soybean ATP sulfurylase isoform 1 (GmATPS1) (Glycine max, UniProt Q8SAG1).
T1 sequence (Q8SAG1 49-462): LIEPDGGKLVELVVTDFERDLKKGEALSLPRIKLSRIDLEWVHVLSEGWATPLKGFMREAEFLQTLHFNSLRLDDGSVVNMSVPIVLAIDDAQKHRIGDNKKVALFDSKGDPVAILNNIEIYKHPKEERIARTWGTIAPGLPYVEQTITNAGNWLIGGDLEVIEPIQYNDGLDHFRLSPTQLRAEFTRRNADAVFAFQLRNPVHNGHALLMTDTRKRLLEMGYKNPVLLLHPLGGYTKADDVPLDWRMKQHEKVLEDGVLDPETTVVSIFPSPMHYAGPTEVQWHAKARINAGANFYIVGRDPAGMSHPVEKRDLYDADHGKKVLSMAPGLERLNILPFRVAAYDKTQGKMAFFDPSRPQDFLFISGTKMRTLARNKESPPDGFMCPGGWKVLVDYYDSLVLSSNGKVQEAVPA
The assay can be described thus: biochemical.

In the case of `Nc1ncnc2c1ncn2[C@@H]1O[C@H](COP(=O)(O)OS(=O)(=O)O)[C@@H](O)[C@H]1O` [APS], the dissociation constant (Kd) stood at 440 ± 20 nM.

The values are drawn from publication PMC3728988, “Kinetic mechanism of the dimeric ATP sulfurylase from plants” (Bioscience Reports, 2013).
